These results are taken from ChEMBL document CHEMBL1148595, “Identification of Darmstoff analogs as selective agonists and antagonists of lysophosphatidic acid receptors” (Bioorg Med Chem Lett, 2006).

The chains behind the UniProt entries cited, without tags or fusion partners. Where a name states a change or a piece, a line headed by the entry shows the natural chain unless it says otherwise.
UniProt P61794: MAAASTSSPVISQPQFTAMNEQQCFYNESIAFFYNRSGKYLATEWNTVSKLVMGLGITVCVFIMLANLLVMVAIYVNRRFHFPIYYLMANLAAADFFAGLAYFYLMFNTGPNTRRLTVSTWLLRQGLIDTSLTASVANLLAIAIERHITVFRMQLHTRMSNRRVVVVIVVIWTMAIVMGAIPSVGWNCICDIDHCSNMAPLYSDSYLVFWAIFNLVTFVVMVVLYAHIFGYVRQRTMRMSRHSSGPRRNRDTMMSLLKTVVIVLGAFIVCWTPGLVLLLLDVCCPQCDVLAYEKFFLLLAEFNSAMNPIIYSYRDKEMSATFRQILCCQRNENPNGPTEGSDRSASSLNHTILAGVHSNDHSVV

As usually defined, the Emax is the greatest response seen or fitted, relative to the assay's reference.

The target in the test is Lysophosphatidic acid receptor 1 (Rattus norvegicus) (UniProt P61794). The test can be described thus: Activity at LPA1 receptor in RH7777 rat hepatoma cell line. It is filed as cell-based.

For the compound `C/C=C/C/C=C/C/C=C/CCCCCCCCC1OCC(COP(=O)(O)O)O1` (stereo unspecified), the Emax turned out to be 55%.
